# Target: BCRP (Homo sapiens, UniProt Q9UNQ0)
# By UniProt entry, the sequences of proteins in these tests, tags left out. Where a name states a change or a piece, a line headed by the entry shows the natural chain unless it says otherwise.
# UniProt Q9UNQ0: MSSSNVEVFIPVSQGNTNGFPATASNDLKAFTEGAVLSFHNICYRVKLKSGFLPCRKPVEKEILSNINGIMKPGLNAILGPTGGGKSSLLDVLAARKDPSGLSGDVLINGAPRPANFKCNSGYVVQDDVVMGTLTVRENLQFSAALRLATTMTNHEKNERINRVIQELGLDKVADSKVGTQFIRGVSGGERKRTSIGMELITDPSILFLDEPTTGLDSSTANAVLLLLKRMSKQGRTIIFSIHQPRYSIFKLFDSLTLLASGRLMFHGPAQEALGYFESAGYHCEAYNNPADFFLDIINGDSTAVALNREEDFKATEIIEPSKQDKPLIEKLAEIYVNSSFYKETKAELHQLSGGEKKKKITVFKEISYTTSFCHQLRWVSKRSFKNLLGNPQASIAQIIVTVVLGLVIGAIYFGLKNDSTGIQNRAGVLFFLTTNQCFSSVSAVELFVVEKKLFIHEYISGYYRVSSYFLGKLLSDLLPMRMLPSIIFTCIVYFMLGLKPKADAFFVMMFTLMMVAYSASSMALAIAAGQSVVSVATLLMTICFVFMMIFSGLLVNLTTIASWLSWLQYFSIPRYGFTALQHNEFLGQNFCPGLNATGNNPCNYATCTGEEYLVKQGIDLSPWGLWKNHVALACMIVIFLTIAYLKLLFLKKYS
# Assay: Inhibition of RSV transport in BCRP-expressing membrane vesicles
# Assay type: biochemical
# Design: purchased GenoMembrane Co., Ltd. (Yokohama, Japan) GM0008; host or cells: Sf9 insect cells
# Conditions: 100 μM
# Method: The vesicular transport activity was determined by the 96-well rapid filtration method in BCRP- and MRP2-expressing membrane vesicles. For samples in the presence of ATP, 10 μL vesicle (final concentration, 1 mg protein/mL), 5 μL buffer A2 (replaced by 100 μM reduced glutathione for MRP2 incubations), 10 μL of varying concentrations of CP or CPC or novobiocin (BCRP inhibitor, final concentration of 100 μM), or benzbromarone (MRP2 inhibitor, final concentration of 100 μM) were pre-incubated at 37°C for 5 min. Meanwhile, 5 μL RSV (final concentration, 1 μM) and 20 μL reagent C2 were pre-incubated at 37°C for 5 min. Then, the transport was initiated by mixing them in a 50 μL reaction system and incubated for the designated time at 37°C. The transport was terminated by adding 200 μL of cold buffer B2 at 4°C. Then, the mixture was filtered using a 96-well filter plate. After washing the vesicles five times with 200 μL of cold buffer B2 at 4°C, the vesicles were lysed with 50 μL of 80% […] twice and then centrifuged at 2000 rpm/min for 2 min. Lysates were collected and then centrifuged at 12,000 rpm/min for 5 min. The supernatants were injected onto the LC-MS/MS. The same procedures were applied to AMP-containing samples except that reagent D2 was used instead of reagent C2. All experiments were performed in quadruplicate.
# Statistical analysis was performed using SPSS ver. […]
smiles,measurement,value
CO[C@@H]1[C@@H](OC(N)=O)[C@@H](O)[C@H](Oc2ccc3c(O)c(NC(=O)c4ccc(O)c(CC=C(C)C)c4)c(=O)oc3c2C)OC1(C)C [novobiocin],Inhibition of RSV uptake into BCRP vesicles (positive control),significantly inhibited

# — publication PMC8504577, “Evaluation of a Clinically Relevant Drug–Drug Interaction Between Rosuvastatin and Clopidogrel and the Risk of Hepatotoxicity” (Frontiers in Pharmacology, 2021)
